Measured values from paper PMC8251916 (Chemistry (Weinheim an Der Bergstrasse, Germany), 2021).

What was measured:
[1] = system: telo23-K+ (hybrid type human telomeric G4); test: UV-Vis titration, telo23-K+; assay type: binding; conditions: ratio of Ka
Description: To obtain quantitative information on the binding of NDI 1 and PDI 3 to the previously assessed G4 and duplex DNA structures, ultraviolet‐visible absorbance spectroscopy (UV‐Vis) titrations were conducted (Figure 3 and S10). In all cases the ligand concentration was kept constant at 10 μM, whilst oligonucleotide was titrated in up to a final concentration of 30 μM. The observed binding isotherms were fitted to an independent/equivalent sites binding model, and binding constants (K a) were determined. […]
telo22-Na+ (antiparallel basket […]
telo23 and telo22 were selected as models for the human telomeric G-quadruplex under K+ and Na+ conditions, respectively, as they have been the subject of detailed structural studies,[S8,S9] […]
used. telo23 forms primarily a (3+1) hybrid structure under K+ conditions,[S8] whilst telo22 forms a single antiparallel fold.[S9]
The oligonucleotides were at a concentration of 5 µM and the buffers used were either potassium phosphate (100 mM, pH 7.4) for telo23-K+, EBR1-K+ and ds26-K+ or sodium phosphate (100 mM, pH 7.4) for telo22-Na+. The reported spectrum for each sample represents the average of 3 scans and is baseline corrected for the buffer used. Data processing was carried out using Prism 7 (GraphPad Software) with a 4-point second order smoothing polynomial applied to all spectra. Observed ellipticities were converted to molar ellipticity.
UV-Visible Absorbance Spectroscopy
Absorbance spectra were recorded on a Cary 60 UV-Visible (UV-Vis) spectrophotometer using a room-light immune fibre optic probe with 10 mm path length. The UV-Vis spectra were […]
were corrected for background and buffer absorbance. The oligonucleotides and buffer conditions were the same as employed in the CD experiments.
In the titrations, the concentration of ligand was fixed at 10 µM in an initial volume of 500 µL.
Aliquots of oligonucleotide were added using a microsyringe from a 100 µM stock solution in appropriate buffer containing also 10 µM ligand to maintain constant ligand concentration. […]

[2] = system: HeLa cervical carcinoma cells; test: Cytotoxicity, alamarBlue assay, HeLa; assay type: cell-based, human; conditions: selectivity index from EC50 values
Description: (§1) Doxorubicin, suramin and miltefosine were used as control compounds.[ ^6b , ^9 ] After incubation with varied concentrations of the compounds for 72 h, cell viability was measured using either an alamarBlue™ assay (for MRC5, HeLa and T. brucei) or MTT assay (for L. major). Absolute EC50 values and selectivity indexes were then calculated from dose‐response curves (Table 2 and S14). […]
(§2) Cell culture reagents were purchased from Thermo Fisher Scientific (Waltham, MA, USA) and used as-is. The Dulbecco’s Minimal Essential Medium (DMEM) formulation contained either high glucose (4.5 g/L, catalogue number: 10569) or low glucose (1 g/L, catalogue number:
(§3) 10567). RPMI-1640 was provided without sodium pyruvate and with L-glutamine (catalogue number: 11875). Phosphate Buffered Saline (PBS) contained NaCl (9 g/L), KH2PO4 (144 mg/L) and Na2HPO4-7.H2O (795 mg/L, catalogue number: 10010049). TrypLE Express™ was provided with EDTA (458 mg/L) and without Phenol Red (catalogue number: 12604021).
MRC-5 cells (human lung fibroblasts) were grown in monolayer (37 °C, 5 % CO2 and 100 % humidity) in DMEM medium (1 g/L glucose), supplemented with 10% heat-inactivated Fetal Bovine Serum (hiFBS), 2 mM L-glutamine, 100 U / mL penicillin and […] streptomycin. HeLa (Human cervical carcinoma cell line) cells were maintained at 37 °C and 5 % CO2 in high glucose DMEM (4.5 g / L) supplemented with 10% hiFBS, 100 U / ml penicillin, […] streptomycin, 2 mM L-glutamine and non-essential aminoacids (1X).
(§4) Cells were cultured according to ATCC recommendations and were used for the experiments while in the exponential growth phase. […]
(§5) Cytotoxicity was measured through the alamarBlue® assay (Thermo Fisher Scientific).[S6,S13] Briefly, 5×10^3 MRC-5 or HeLa cells were seeded in 96-wells plates (100 µL / well) in the presence of increasing concentrations of compound. […] The plate was incubated at 37 °C for an extra hour and then analysed by fluorescence with an Infinite F200 plate reader (TECAN Austria, GmbH). […] The results are expressed as the concentration of compound that reduces

T. brucei [3] = test: Trypanocidal activity, alamarBlue assay; assay type: cell-based; conditions: selectivity index from EC50 values
Description: as §1, §2, §3
MRC-5 cells (human lung fibroblasts) were grown in monolayer (37 °C, 5 % CO2 and 100 % humidity) in DMEM medium (1 g/L glucose), supplemented with 10% heat-inactivated Fetal Bovine Serum (hiFBS), 2 mM L-glutamine, 100 U / mL penicillin and […]
streptomycin. […]
as §4
hiFBS. Parasites were split every other day and maintained in their experimental growth phase (below 2 million parasites per mL).
as §5

L. major = test: Leishmaniacidal activity, MTT assay; assay type: cell-based; conditions: selectivity index from EC50 values
Description: Doxorubicin, suramin and miltefosine were used as control compounds.[ ^6b , ^9 ] After incubation with varied concentrations of the compounds for 72 h, cell viability was measured using either an alamarBlue™ assay (for MRC5, HeLa and T. brucei) or MTT assay (for L. major). Absolute EC50 values and selectivity indexes were then calculated from dose‐response curves (Table 2 and S14).
Invitrogen). L. major promastigotes (MHOM/IL/80/Friedlin) were cultured at 28 °C, 5 % CO2 in modified RPMI-1640 medium (Thermo Fisher Scientific, Waltham, MA, USA) with 10% hiFBS. Parasites were split every other day and maintained in their experimental growth phase (below 2 million parasites per mL). […]
The results are expressed as the concentration of compound that reduces cell growth by 50 % versus untreated control cells (EC50) using GraphPad Prism 7 (GraphPad Software) to fit the data to a sigmoidal curve. […]
The leishmaniacidal activity of the compounds on promastigotes L. major (MHOM/IL/80/Friedlin) was carried out as previously described.[S14] […] Cell proliferation was determined using an MTT-based assay (Sigma-Aldrich). […] The plate was then incubated at 37°C for 4-16 hrs and analysed using an Infinite F200 plate reader (TECAN Austria, GmbH). The absorbance was measured […]
at a wavelength of 540 nm and the EC50 was calculated as described above. […]

T. brucei [4] = system: T. brucei; design: method as in earlier work; conditions: typical G4 interactive compounds; ref 6b; cited from earlier work

Compound | selectivity for telo23-K+ G4 over EBR1-K+ G4 [1] | selectivity for telo23-K+ G4 over ds26-K+ duplex [1] | selectivity for telo23-K+ G4 over telo22-Na+ G4 [1] | SI (MRC5/HeLa) [2] | SI (MRC5/T. brucei) (T. brucei [3]) | SI (MRC5/ L. major) (L. major) | selectivity index (SI) T. brucei over MRC5 (T. brucei [4])
CN1CCN(CCCN2C(=O)c3ccc4c5c(ccc(c35)C2=O)C(=O)N(CCCN2CCN(C)CC2)C4=O)CC1 [Compound 1] | 3 fold | 6 fold | 100 fold | 10 | 6.4 | 8.3 | –
CN1CCN(CCCN2C(=O)c3ccc(Oc4ccc(C(C)(C)c5ccc(Oc6ccc7c(c6)C(=O)N(CCCN6CCN(C)CC6)C7=O)cc5)cc4)cc3C2=O)CC1 [Compound 9] | – | – | – | 3.0 | 2.7 | – | –
CN1CCN(CCCNC(=O)c2ccc(Oc3ccc(C(C)(C)c4ccc(Oc5ccc(C(=O)NCCCN6CCN(C)CC6)c(C(=O)NCCCN6CCN(C)CC6)c5)cc4)cc3)cc2C(=O)NCCCN2CCN(C)CC2)CC1 [Compound 11] | – | – | – | 4.2 | 21 | 3.2 | –
NCCOc1cc(C(=O)Nc2cc(OCCN)c3ccccc3n2)nc(C(=O)Nc2cc(OCCN)c3ccccc3n2)c1 [Pyridostatin, reference compound] | – | – | – | – | – | – | 0.7
